Antibody variant affinities, Ab-14 heavy chain, assay B

Data: MIT Lincoln Laboratory AlphaSeq set, Li et al. 2023, doi:10.1038/s41467-023-39022-2, as distributed in FLAb.

The target is the same throughout: PDVDLGDISGINAS, from the HR2 region of SARS-CoV-2 spike.

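The parent was found by panning a naive human phage display library on the peptide. This is the validation round: designs drawn from the data on random variants, tested in the same kind of assay. Several design methods are mixed in this list. AlphaSeq pools MATa yeast showing the antibodies with MATalpha yeast showing the peptide. The frequency of each diploid, read from paired DNA barcodes, reflects how well the two displayed proteins bind. Read counts were normalised to the haploid input and turned into Kd by a linear fit to BCL2-family pairs of known affinity, for each replicate. Mating was done six times.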

The variants keep the light chain, the linker and the frameworks of Ab-14 (scFv order VH, the linker GGGGSGGGGSGGGGS, VL).
VH: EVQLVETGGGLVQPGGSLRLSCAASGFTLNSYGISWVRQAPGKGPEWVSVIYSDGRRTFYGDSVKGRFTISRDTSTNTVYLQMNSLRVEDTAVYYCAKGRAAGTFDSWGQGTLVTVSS
VL: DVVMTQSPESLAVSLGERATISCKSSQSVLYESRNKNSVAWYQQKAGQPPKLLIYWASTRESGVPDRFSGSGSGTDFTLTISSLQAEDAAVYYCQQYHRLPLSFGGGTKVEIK

Each variant is given by its three heavy chain CDRs, as the data file delimits them; those of the parent are GFTLNSYGIS, VIYSDGRRTFYGDSVK, GRAAGTFDS.
This list holds designs with at most six substitutions.
Values are apparent Kd, the geometric mean of the replicates that gave a signal; lower means stronger binding.
"nd" marks a missing value. The strain was present, yet no cells mated with the target were sequenced in any replicate, which points to weak or no binding.
The list is sorted by this average, lowest first, undetected variants last.
Three control strains display no target. For all heavy chain designs, 1% of the pairings with them gave a signal, with a median of 120 nM and one signal in twenty below 7.0 nM, so weak values seen in few replicates may be background. The control count says in how many pairings with the empty strains this scFv gave a signal.
A sequence measured in both rounds can read differently, since the two assays cover different ranges.
The parent sequence was in this pool as ten entries: three were never detected, three once, and four in most replicates, with averages from 2.2 nM to 240 nM.
The authors' rule: three or more of the six replicates give a measured affinity, fewer mean a poor binder.

* GFSLNSYGIS, VIYSDGRRTFYADSVK, GWTAGTFDN -> 420 pM (6 of 6 replicates; controls 0 of 18)
* GFELNSYGIS, VIYADGRRTFYQDSVK, GEAAGTFDS -> 420 pM (6 of 6 replicates; controls 0 of 18)
* GFSLNEYGIS, VIYSDGRRTFYTDSVK, GRFAGTFDN -> 1.6 nM (6 of 6 replicates; controls 0 of 18)
* GFDLNDYGIS, VIYSDGRRTFYGDSVK, GRAAGTFDS -> 1.7 nM (6 of 6 replicates; controls 0 of 18)
* GFSLNSYGIS, VIYSDGRRTYYGDSVK, GRTAGTFDS -> 1.9 nM (6 of 6 replicates; controls 0 of 18)
* GFDLNSYGIS, VIYSDGKRTFYIDSVK, GKAAGTFDS -> 2.3 nM (6 of 6 replicates; controls 0 of 18)
* GFELNSYGIS, VIYSDGRRTFYGDSVK, GSIAGTFDS -> 2.3 nM (6 of 6 replicates; controls 0 of 18)
* GFTLNEYGIS, VIYSDGRRTFYGDSVK, GRAAVTFNQ -> 3.1 nM (6 of 6 replicates; controls 0 of 18)
* GSTLNEYGIS, VIYSDGRRTFYTDSVK, GRNAGTFDS -> 3.2 nM (6 of 6 replicates; controls 0 of 18)
* GFDLNSYGIS, VIYSDGMRTFYIDSVK, GNAAGTFDS -> 7.2 nM (6 of 6 replicates; controls 0 of 18)
* GYTLNSYGIS, VIYSDGRRTFYSDSVK, GRAAGTFDS -> 8.7 nM (6 of 6 replicates; controls 1 of 18)
* GFTLNSYGIS, VIYSDGRRTFYSDSVK, GSAAGTFDL -> 8.7 nM (6 of 6 replicates; controls 0 of 18)
* GFYLNEYGIS, VIYSDGRRTFYGDSVK, GQAAGTFDS -> 11 nM (6 of 6 replicates; controls 0 of 18)
* GFTLNSYGIS, VIYSDGRRTFYDDRVK, GQLAGTFDS -> 12 nM (6 of 6 replicates; controls 0 of 18)
* GFTLNSYGIS, VIYSDGRRTFYQDSVK, GRAAGTFEI -> 13 nM (1 of 6 replicates; controls 0 of 18)
* GFTLNSYGIS, VIYSDGRRTFYHDSVK, GEAAGTFDT -> 14 nM (6 of 6 replicates; controls 0 of 18)
* GFNLNSYGIS, VIYSDGRRTFYIDSVK, GQTAGTFDK -> 15 nM (4 of 6 replicates; controls 0 of 18)
* GFDLHSYGIS, VIYSDGRRTFYGVSVK, GRAAGWFNS -> 17 nM (1 of 6 replicates; controls 0 of 18)
* GFDLNSYGIS, VIYSDGRRTFYGDSVK, GRTAQTFDS -> 25 nM (1 of 6 replicates; controls 0 of 18)
* GFTLNSYGIS, VIYSDGRRTFYGDDVK, GRTAGTFDS -> 28 nM (4 of 6 replicates; controls 0 of 18)
* GFTLNDYGIS, VIYSDGRRTFYIDTVK, GKAAGTFDS -> 45 nM (3 of 6 replicates; controls 0 of 18)
* MFDLNSYGIS, VIYSDGRRTFYGDSVK, GQEAGTFDS -> 58 nM (5 of 6 replicates; controls 1 of 18)
* GFTLNSYGIS, VIYSDGRRTFYKDSVK, GLLAGTFDS -> 110 nM (6 of 6 replicates; controls 0 of 18)
* GFSLNNYGIS, VIYSDGRRTFYGDHVK, GQAAGTFDS -> 250 nM (6 of 6 replicates; controls 1 of 18)
* GFTLNEYGIS, VIYSDGRRVFYGDSSK, GRAAGTFDS -> 360 nM (1 of 6 replicates; controls 0 of 18)
* GFDLNSYGIS, VIYSDGRRTFYGDSVK, GRIAGSFNS -> 450 nM (2 of 6 replicates; controls 1 of 18)
* GFTLNSYGIS, VIYSDGRRTSYEDSVK, GFAAGTFDS -> 1.5 µM (5 of 6 replicates; controls 1 of 18)
* GFQLNSYGIS, VIYSDGRRTFYADSVK, GREAGTFDQ -> nd (0 of 6 replicates; controls 0 of 18)
* GFTLNSYGIS, VIYSDGMRTSYGDSVK, GREAGTFDS -> nd (0 of 6 replicates; controls 0 of 18)
* GFTLNSYGIS, VIYSDGRRTFYIDAVK, GQEAGTFDS -> nd (0 of 6 replicates; controls 0 of 18)
* GFDLNSYGIS, VIYSDGRRTFYDDSVK, GRAAVTFDI -> nd (0 of 6 replicates; controls 0 of 18)
* GFTLNEYGIS, VIYSDGRRTFYGDSVK, GEAAGTKDS -> nd (0 of 6 replicates; controls 0 of 18)
* GFTLNSYGIS, VIYSDGKRTFYADSVK, GRAAGTFWS -> nd (0 of 6 replicates; controls 0 of 18)
* GFTVNSYGIS, VIYSDGRRTFYGDSVD, GRAAGTFDS -> nd (0 of 6 replicates; controls 0 of 18)
* GFTLNSYGIS, VIYSDGRRTFYHDSVK, GRNQGTFDS -> nd (0 of 6 replicates; controls 0 of 18)
* GFTLNSYGIS, VIYSDGRRTFYGDSVK, GRAAGTKDQ -> nd (0 of 6 replicates; controls 0 of 18)